Laboratory results from article PMC3726004 (Bioorganic & medicinal chemistry, 2009).

The chains behind the UniProt entries cited, without tags or fusion partners. Residues count along the entry.
UniProt P09483, 31-630: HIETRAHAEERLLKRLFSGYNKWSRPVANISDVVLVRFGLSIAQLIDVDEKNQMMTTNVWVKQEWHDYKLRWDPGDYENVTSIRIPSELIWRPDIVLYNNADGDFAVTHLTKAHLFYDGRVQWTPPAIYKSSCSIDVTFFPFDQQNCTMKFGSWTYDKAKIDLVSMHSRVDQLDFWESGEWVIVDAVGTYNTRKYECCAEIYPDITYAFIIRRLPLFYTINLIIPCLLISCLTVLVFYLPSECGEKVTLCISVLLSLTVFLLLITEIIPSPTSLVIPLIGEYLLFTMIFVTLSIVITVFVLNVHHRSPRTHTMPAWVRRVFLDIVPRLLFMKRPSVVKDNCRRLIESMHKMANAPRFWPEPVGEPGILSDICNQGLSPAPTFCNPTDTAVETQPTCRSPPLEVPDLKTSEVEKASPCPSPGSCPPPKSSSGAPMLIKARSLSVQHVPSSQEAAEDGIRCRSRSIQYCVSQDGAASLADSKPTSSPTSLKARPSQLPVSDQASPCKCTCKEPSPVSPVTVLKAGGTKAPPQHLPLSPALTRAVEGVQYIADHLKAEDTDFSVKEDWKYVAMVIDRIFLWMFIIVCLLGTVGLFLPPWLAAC
UniProt P12390, 25-500: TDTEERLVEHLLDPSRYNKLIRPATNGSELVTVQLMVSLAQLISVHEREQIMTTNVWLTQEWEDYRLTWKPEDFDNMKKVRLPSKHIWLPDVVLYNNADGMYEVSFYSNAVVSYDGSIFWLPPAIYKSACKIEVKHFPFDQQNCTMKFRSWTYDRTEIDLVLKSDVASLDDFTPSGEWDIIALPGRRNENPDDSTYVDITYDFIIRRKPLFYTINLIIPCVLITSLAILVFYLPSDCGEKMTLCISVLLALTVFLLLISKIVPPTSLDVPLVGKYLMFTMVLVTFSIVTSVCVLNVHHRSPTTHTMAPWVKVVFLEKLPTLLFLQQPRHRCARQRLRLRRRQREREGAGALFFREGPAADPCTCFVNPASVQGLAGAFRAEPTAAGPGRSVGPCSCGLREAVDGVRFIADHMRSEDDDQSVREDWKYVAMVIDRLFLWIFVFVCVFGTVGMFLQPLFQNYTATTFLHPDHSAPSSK

Molecular target: α4β2* nAChRs (Rattus norvegicus, UniProt P09483+P12390)
Test: [3H]nicotine
Type: binding

Cc1ccc(C(=O)O[C@@H](C[C@@H]2CCC[C@H](CC(=O)c3ccccc3)N2C)c2ccccc2)cc1.Cl [Compound 3, (2S, 6S, 2R)-2-[6-(2-Toluyloxy-2-phenylethyl)-1-methylpiperidin-2-yl]-1-phenylethanone hydrochloride]
fold less potent than lobeline in inhibiting [3H]nicotine binding (α4β2*): 215–4800 fold
